# Laboratory results taken from PubChem BioAssay AID463165 (Johns Hopkins Ion Channel Center, 2010).
# Sequences of proteins named here, by UniProt entry; tags and fusion partners are left off. A change or cut given only in a name is not applied to a line headed by its entry.
# UniProt P49798: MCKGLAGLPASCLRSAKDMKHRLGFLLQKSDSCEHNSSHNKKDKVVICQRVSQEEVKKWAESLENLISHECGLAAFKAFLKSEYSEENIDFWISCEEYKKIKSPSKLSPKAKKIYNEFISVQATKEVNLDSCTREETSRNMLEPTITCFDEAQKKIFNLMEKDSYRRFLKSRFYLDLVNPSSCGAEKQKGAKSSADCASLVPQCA
# Only a part is listed here, and it is no random draw. Calls of active or inactive are those of the source.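 How the source made its calls: active means B-score, a plate-corrected calcium signal, over three deviations above library mean, with baseline fluorescence within five deviations of library mean; inactive means the rest.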
# Target: Regulator of G-protein signaling 4 (Homo sapiens) (UniProt P49798)
# Assay: RGS4 inhibitors, primary screen, cell-based, HEK293 M3R inducible RGS4, calcium flux (AID 463165);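 further: RGS4 expression induced by doxycycline in cells with stable M3 receptor; B-score is computed from the integrated fluorescence ratio over baseline after carbachol; higher B-score means a larger calcium signal and so more RGS4 inhibition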
# Conditions: Fluo-4 calcium flux, at 10 µM, active compounds read high, triggered by carbachol at its EC20
row,SMILES,B-score
1,CCc1nc2c(n1)c1c(non1O)c1c2no[n+]1[O-],active: 5.68
